The results in this text go back to patent US20260200947A1, “FUSED CYCLIC COMPOUNDS AND USE THEREOF” (Jacobio Pharmaceuticals Co., Ltd., priority 2022, published 2026).

Sequences of proteins named here, by UniProt entry; tags and fusion partners are left off. Residues count along the entry.
UniProt P01116, 1-169 isoform 2 G12D limits assumed: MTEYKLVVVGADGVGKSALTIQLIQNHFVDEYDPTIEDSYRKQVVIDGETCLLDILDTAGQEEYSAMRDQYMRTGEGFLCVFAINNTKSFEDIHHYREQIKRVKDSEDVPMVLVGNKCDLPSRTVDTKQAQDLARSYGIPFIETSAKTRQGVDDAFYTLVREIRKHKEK
UniProt P01116, 1-169 isoform 2 G12V limits assumed: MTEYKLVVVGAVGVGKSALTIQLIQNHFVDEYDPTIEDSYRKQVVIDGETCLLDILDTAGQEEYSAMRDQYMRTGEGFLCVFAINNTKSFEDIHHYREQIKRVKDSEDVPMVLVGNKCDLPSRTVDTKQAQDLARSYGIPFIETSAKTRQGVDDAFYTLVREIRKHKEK

The IC50 is the concentration needed to halve the response being measured.

Structures are written as SMILES. Some results are limits rather than exact numbers.

The target of the first assay is GppNp-KRAS G12D (Homo sapiens, UniProt P01116, G12D). The experiment in a line: GTP-K-Ras and cRAF interaction assay, GppNp-KRAS G12D. Conditions: read-out: Biochemical assays, IC50, KRAS G12D GppNp; GppNp-loaded K-Ras G12D, cRAF RBD interaction, HTRF. Background: Time-resolved FRET reads energy transfer from a long-lived donor to a nearby acceptor.
On to `C#Cc1c(F)ccc2cc(N)cc(-c3nc4c5c(nc(OCC67CCCN6CC(F)C7)nc5c3F)N3CC(C)(O)COCC3N4C)c12` (single isomer, unassigned) [Compound 156C], for which the IC50 stood at 32.7 nM.
The same measure, in the same setting: the same measure for `C#Cc1c(F)ccc2cc(N)cc(-c3nc4c5c(nc(OC[C@@]67CCCN6C[C@H](F)C7)nc5c3F)N3CCCOCC3N4C)c12` (single isomer, unassigned): 44.2 nM; for `C#Cc1c(F)ccc2cc(N)cc(-c3nc4c5c(nc(OC[C@@]67CCCN6C[C@H](F)C7)nc5c3F)N3CCCC=C[C@@H]3N4C)c12`: > 1000 nM.
The same measure, in the same setting: the same measure for `C#Cc1c(F)ccc2cc(N)cc(-c3nc4c5c(nc(OCC67CCCN6CC(=C(F)F)C7)nc5c3F)N3CCCOCC3CO4)c12` (single isomer, unassigned) [Compound 26A]: 109 nM; for `C#Cc1c(F)ccc2cc(N)cc(-c3nc4c5c(nc(OC[C@@]67CCCN6C[C@H](F)C7)nc5c3F)N3CC(F)COCC3N4C)c12` (single isomer, unassigned) [Compound 39B]: 189 nM; for `C#Cc1c(F)ccc2cc(N)cc(-c3nc4c5c(nc(OC[C@@]67CCCN6C[C@H](F)C7)nc5c3F)N3CCCCC[C@H]3N4C)c12`: 29.3 nM.

The target of another assay is GppNp-KRAS G12V (Homo sapiens, UniProt P01116, G12V). Put plainly: GTP-K-Ras and cRAF interaction assay, GppNp-KRAS G12V. To be noted: read-out: Biochemical assays, IC50, KRAS G12V GppNp; GppNp-loaded K-Ras G12V, cRAF RBD interaction, HTRF.
As for `C#Cc1c(F)ccc2cc(N)cc(-c3nc4c5c(nc(OCC67CCCN6CC(F)C7)nc5c3F)N3CC(C)(O)COCC3N4C)c12` (single isomer, unassigned) [Compound 156C], the IC50 was determined as 336 nM.
Still for that read-out and setting: under `C#Cc1c(F)ccc2cc(N)cc(-c3nc4c5c(nc(OC[C@@]67CCCN6C[C@H](F)C7)nc5c3F)N3CCCOCC3N4C)c12` (single isomer, unassigned) stands 52.1 nM; under `C#Cc1c(F)ccc2cc(N)cc(-c3nc4c5c(nc(OC[C@@]67CCCN6C[C@H](F)C7)nc5c3F)N3CCCC=C[C@@H]3N4C)c12`, > 1000 nM.
Still for that read-out and setting: the same measure for `C#Cc1c(F)ccc2cc(N)cc(-c3nc4c5c(nc(OCC67CCCN6CC(=C(F)F)C7)nc5c3F)N3CCCOCC3CO4)c12` (single isomer, unassigned) [Compound 26A]: 220 nM; for `C#Cc1c(F)ccc2cc(N)cc(-c3nc4c5c(nc(OC[C@@]67CCCN6C[C@H](F)C7)nc5c3F)N3CC(F)COCC3N4C)c12` (single isomer, unassigned) [Compound 39B]: 226 nM.
The same measure, in the same setting: under `C#Cc1c(F)ccc2cc(N)cc(-c3nc4c5c(nc(OC[C@@]67CCCN6C[C@H](F)C7)nc5c3F)N3CCCCC[C@H]3N4C)c12` stands 123 nM.

A further assay has as its system SW620 cells (K-Ras G12V). The experiment in a line: Phospho-ERK1/2(THR202/TYR204) HTRF assay, SW620. To be noted: read-out: pERK, IC50, SW620, 2 hours incubation.
For `C#Cc1c(F)ccc2cc(N)cc(-c3nc4c5c(nc(OC[C@@]67CCCN6C[C@H](F)C7)nc5c3F)N3CCCOCC3N4C)c12` (single isomer, unassigned), the half-maximal inhibitory concentration (IC50) was determined as 1.66 nM.
Still for that read-out and setting: under `C#Cc1c(F)ccc2cc(N)cc(-c3nc4c5c(nc(OCC67CCCN6CC(=C(F)F)C7)nc5c3F)N3CCCOCC3CO4)c12` (single isomer, unassigned) [Compound 26A] stands 6.99 nM; under `C#Cc1c(F)ccc2cc(N)cc(-c3nc4c5c(nc(OC[C@@]67CCCN6C[C@H](F)C7)nc5c3F)N3CC(F)COCC3N4C)c12` (single isomer, unassigned) [Compound 39B], 4.98 nM; under `C#Cc1c(F)ccc2cc(N)cc(-c3nc4c5c(nc(OC[C@@]67CCCN6C[C@H](F)C7)nc5c3F)N3CCCCC[C@H]3N4C)c12`, 1.84 nM.

The target in another assay is GDP-KRAS G12V (Homo sapiens, UniProt P01116, G12V). The experiment in a line: SOS1 catalyzed nucleotide exchange assay, GDP-KRAS G12V. Conditions: read-out: Biochemical assays, IC50, KRAS G12V GDP, GDP form K-Ras G12V, TR-FRET.
For `C#Cc1c(F)ccc2cc(N)cc(-c3nc4c5c(nc(OCC67CCCN6CC(F)C7)nc5c3F)N3CC(C)(O)COCC3N4C)c12` (single isomer, unassigned) [Compound 156C], the half-maximal inhibitory concentration (IC50) stood at 2.15 nM.
On the same count and under the same terms, under `C#Cc1c(F)ccc2cc(N)cc(-c3nc4c5c(nc(OC[C@@]67CCCN6C[C@H](F)C7)nc5c3F)N3CCCOCC3N4C)c12` (single isomer, unassigned) stands 0.538 nM.
On the same count and under the same terms, the same measure for `C#Cc1c(F)ccc2cc(N)cc(-c3nc4c5c(nc(OC[C@@]67CCCN6C[C@H](F)C7)nc5c3F)N3CCCC=C[C@@H]3N4C)c12`: 108 nM; for `C#Cc1c(F)ccc2cc(N)cc(-c3nc4c5c(nc(OCC67CCCN6CC(=C(F)F)C7)nc5c3F)N3CCCOCC3CO4)c12` (single isomer, unassigned) [Compound 26A]: 2.57 nM.
On the same count and under the same terms, the same measure for `C#Cc1c(F)ccc2cc(N)cc(-c3nc4c5c(nc(OC[C@@]67CCCN6C[C@H](F)C7)nc5c3F)N3CC(F)COCC3N4C)c12` (single isomer, unassigned) [Compound 39B]: 1.22 nM; for `C#Cc1c(F)ccc2cc(N)cc(-c3nc4c5c(nc(OC[C@@]67CCCN6C[C@H](F)C7)nc5c3F)N3CCCCC[C@H]3N4C)c12`: 1.08 nM.

For the next assay, the target named is GDP-KRAS G12D (Homo sapiens, UniProt P01116, G12D). The experiment in a line: SOS1 catalyzed nucleotide exchange assay, GDP-KRAS G12D. Conditions: read-out: Biochemical assays, IC50, KRAS G12D GDP, GDP form K-Ras G12D, TR-FRET.
For the compound `C#Cc1c(F)ccc2cc(N)cc(-c3nc4c5c(nc(OCC67CCCN6CC(F)C7)nc5c3F)N3CC(C)(O)COCC3N4C)c12` (single isomer, unassigned) [Compound 156C], the concentration for half-maximal inhibition (IC50) was 1.82 nM.
Still for that read-out and setting: under `C#Cc1c(F)ccc2cc(N)cc(-c3nc4c5c(nc(OC[C@@]67CCCN6C[C@H](F)C7)nc5c3F)N3CCCOCC3N4C)c12` (single isomer, unassigned) stands 0.766 nM; under `C#Cc1c(F)ccc2cc(N)cc(-c3nc4c5c(nc(OC[C@@]67CCCN6C[C@H](F)C7)nc5c3F)N3CCCC=C[C@@H]3N4C)c12`, 104 nM.
`C#Cc1c(F)ccc2cc(N)cc(-c3nc4c5c(nc(OCC67CCCN6CC(=C(F)F)C7)nc5c3F)N3CCCOCC3CO4)c12` (single isomer, unassigned) [Compound 26A]: the half-inhibitory concentration (IC50) was 2.3 nM.
Consider `C#Cc1c(F)ccc2cc(N)cc(-c3nc4c5c(nc(OC[C@@]67CCCN6C[C@H](F)C7)nc5c3F)N3CC(F)COCC3N4C)c12` (single isomer, unassigned) [Compound 39B], for which the half-maximal inhibitory concentration (IC50) came to 1.8 nM.
On to `C#Cc1c(F)ccc2cc(N)cc(-c3nc4c5c(nc(OC[C@@]67CCCN6C[C@H](F)C7)nc5c3F)N3CCCCC[C@H]3N4C)c12`, for which the concentration for half-maximal inhibition (IC50) turned out to be 1.09 nM.
